Laboratory results as given in patent US20130115174A1, “TRANSMUCOSAL COMPOSITION CONTAINING ANTHOCYANINS FOR ALLEVIATING A VISUAL DISCOMFORT” (priority 2010, published 2013).

Legend:
[1] = design: species or system Rats (OFA, Sprague-Dawlay); conditions: rat, in vivo
Procedure: The stick gum administered to Rats contains 5 mg of vegetal extract titrated at 25% of anthocyanosides (i.e. 1.250 μg of anthocyanosides). The Sprague Dawley rat (10 Males) used extensively in medical research weighing 450-520 g were received and placed separately in cage in room temperature controlled (22° C.). This rat species is chose for its calmness and its easy handling. […] J. Nutr 2002). As anthocyanins are particularly susceptible to pH variations and are unstable at intestinal pH, collected samples were analyzed by HPLC after acidification with 240 mmol/L HCl, to allow the comparison with intestinal administration. […] Spectrum was compared to Cyanidin 3-glucoside that represent 98% of total anthocyanins. […] Anthocyanin metabolites were detected according to the respective m/z values of their parent and product ions. Absorption from mucosal epithelium and serum was estimated by calculating the difference between anthocyanin quantity contained in buccal gum patch administered and the amount recovered at the end in samples. Rats (OFA, Sprague-Dawlay) received a lingual administration of anthocyanins with an orodispersible gum containing 1.25 mg of anthocyanin. The stick gum was deposited at the buccal mucosa area. […] After acidification, plasma samples were conserved at -80° C. and analyzed by LC-MS/MS (Liquid Chromatography-Mass Spectrometer/Mass Spectrometer). In parallel, epithelium and conjunctive tissues were collected 45 minutes post-administration, placed in formic acid and eventually conserved at -80° C. Before LC-MS/MS analyze, tissues were washed in PBS (phosphate buffered saline) and homogenized on ice. Protein concentrations were determined by Lowry method. […] Absorption was estimated by calculating the administering/recovering anthocyanosides estimated concentration in samples ratio. Quantification was adjusted in respect of residual anthocyanoside quantity contained in buccal washing (anthocyanosides extracted from stick gum not absorbed and residual non dissolved stick gum).

[2] = Digestive versus sublingual absorption, plasmatic level 1 hour after administration; design: species or system Rats; conditions: rat, in vivo
Procedure: Taurin and Lutein plasmatic level are evaluated using HPLC process as described Lallemand F. et al, 2004 and Shanmugam S, et al, 2011, respectively.

Anthocyanin (μg/ml of plasma), Mean +/- SEM [1]: 212 +/− 9 μg/ml of plasma
absorption of anthocyanin, lingual way as compared to the digestive way [1]: more effective
amount of absorbed anthocyanin, 25% extract by lingual route versus 50% extract by digestive route [1]: greater
calculated absorption of anthocyanin, lingual route versus digestive route [1]: more than 10 fold
absorption, lingual way as compared to the digestive way [2]: more effective
Substance: Anthocyanin
